Laboratory results: PubChem BioAssay (EPA / NIEHS)
This is a selection; strong and weak results do not stand in their true shares. Calls of active or inactive are those of the source. How the source made its calls: active means hit-call score of the fitted dose curve at least 0.9, where 1 is the maximum; inactive means score below 0.9.

Amino acid sequences for entries named in this document (tags omitted).
UniProt Q16665, whole entry, looked up: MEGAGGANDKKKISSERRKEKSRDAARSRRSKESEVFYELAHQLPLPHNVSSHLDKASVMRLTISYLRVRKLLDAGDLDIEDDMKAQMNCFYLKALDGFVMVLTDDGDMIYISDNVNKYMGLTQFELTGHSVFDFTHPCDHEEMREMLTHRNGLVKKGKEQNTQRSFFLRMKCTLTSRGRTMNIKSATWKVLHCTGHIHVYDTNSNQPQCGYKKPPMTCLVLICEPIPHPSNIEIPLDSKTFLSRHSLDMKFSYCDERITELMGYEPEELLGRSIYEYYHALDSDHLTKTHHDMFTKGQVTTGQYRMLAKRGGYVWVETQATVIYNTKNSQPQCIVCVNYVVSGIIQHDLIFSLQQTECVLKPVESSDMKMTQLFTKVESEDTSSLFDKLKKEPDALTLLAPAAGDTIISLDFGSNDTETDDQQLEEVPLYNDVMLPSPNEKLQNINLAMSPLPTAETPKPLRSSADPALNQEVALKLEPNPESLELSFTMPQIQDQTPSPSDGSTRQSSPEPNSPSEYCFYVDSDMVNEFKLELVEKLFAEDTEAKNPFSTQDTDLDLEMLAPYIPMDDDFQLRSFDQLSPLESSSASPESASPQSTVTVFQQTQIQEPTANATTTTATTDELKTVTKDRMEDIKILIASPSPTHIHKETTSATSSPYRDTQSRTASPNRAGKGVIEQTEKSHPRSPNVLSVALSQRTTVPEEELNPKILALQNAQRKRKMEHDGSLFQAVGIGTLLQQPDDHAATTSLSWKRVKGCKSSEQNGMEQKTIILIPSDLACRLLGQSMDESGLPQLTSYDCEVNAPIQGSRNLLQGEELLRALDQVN

How the values were obtained:
Settings in all cases: actives raise or lower the signal; mRNA level, 48 h
[1] = read-out: Glutathione S-transferase M3 (GSTM3), GSTM3 (gene 2947); experiment: LTEA_HepaRG_GSTM3: Life Technologies and Expression Analysis (LTEA) Assay for Glutathione S-transferase M3 (GSTM3) using HepaRG (AID 2283501)
Procedure, shortened: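 Differentiated human HepaRG cells were exposed in duplicate for 48 h in serum-free induction medium, 8 points from 100 uM top in half-log steps, 0.5% DMSO. GSTM3 mRNA was measured by TaqMan qRT-PCR, normalized to ACTB, GAPDH and POLR2A; bidirectional fit versus DMSO.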

[2] = read-out: Heat shock 70 kDa protein 1 (HSPA1A), gene 3303; experiment: LTEA_HepaRG_HSPA1A: Life Technologies and Expression Analysis (LTEA) Assay for Heat shock 70 kDa protein 1 (HSPA1A) using HepaRG (AID 2283502)
Procedure, shortened: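 HSPA1A induction in human HepaRG liver cells is measured after 48 h of chemical treatment (100 uM maximum, 0.5% DMSO vehicle). Expression comes from qRT-PCR normalized to endogenous controls.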

[3] = read-out: Hypoxia-inducible factor 1-alpha (Homo sapiens) (UniProt Q16665); experiment: LTEA_HepaRG_HIF1A: Life Technologies and Expression Analysis (LTEA) Assay for Hypoxia-inducible factor 1 (HIF1A) Trancription factor using HepaRG (AID 2283503)
Procedure, shortened: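 HepaRG, 48 h exposure, 8-pt half-log series from 100 uM, 0.5% DMSO vehicle, duplicates. Readout: HIF1A transcript by qRT-PCR (Fluidigm array), housekeeping-normalised. Bidirectional curve fit vs DMSO baseline.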

[4] = read-out: 3-Hydroxy-3-Methylglutaryl-CoA Synthase 2 (HMGCS2), HMGCS2 (gene 3158); experiment: LTEA_HepaRG_HMGCS2: Life Technologies and Expression Analysis (LTEA) Assay for 3-Hydroxy-3-Methylglutaryl-CoA Synthase 2 (HMGCS2) using HepaRG (AID 2283504)
Procedure, shortened: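 Human HepaRG cells in serum-free induction medium were exposed in duplicate for 48 h to 8-point half-log series from 100 uM top in 0.5% DMSO. HMGCS2 mRNA measured by TaqMan qRT-PCR, normalised to ACTB, GAPDH, POLR2A; bidirectional fit versus DMSO.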

HGF (gene 3082) = experiment: LTEA_HepaRG_HGF: Life Technologies and Expression Analysis (LTEA) Assay for Hepatocyte Growth Facto (HGF) using HepaRG (AID 2283505)
Procedure, shortened: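 Differentiated HepaRG cells in serum-free induction medium exposed 48 h in duplicate, 8 half-log concentrations from 100 uM in 0.5% DMSO. HGF mRNA by qRT-PCR, normalised to ACTB, GAPDH, POLR2A; bidirectional fitting.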

[5] = read-out: Intercellular Adhesion Molecule 1 (ICAM1), ICAM1 (gene 3383); experiment: LTEA_HepaRG_ICAM1: Life Technologies and Expression Analysis (LTEA) Assay for Intercellular Adhesion Molecule 1 (ICAM1) using HepaRG (AID 2283507)
Procedure, shortened: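 Differentiated human HepaRG cells in serum-free induction medium exposed 48 h in duplicate to 8 half-log concentrations (top 100 uM, 0.5% DMSO). ICAM1 mRNA quantified by TaqMan qRT-PCR, normalized to ACTB, GAPDH and POLR2A; bidirectional fitting versus DMSO.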

[6] = read-out: Potassium channel subfamily K member 1 (KCNK1), KCNK1 (gene 3775); experiment: LTEA_HepaRG_KCNK1: Life Technologies and Expression Analysis (LTEA) Assay for Potassium channel subfamily K member 1 (KCNK1) using HepaRG (AID 2283511)
Procedure, shortened: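 Differentiated HepaRG cells, 48 h exposure in serum-free induction medium with 0.5% DMSO; 8 concentrations, half-log from 100 uM, duplicate. KCNK1 mRNA by qRT-PCR, normalized to ACTB, GAPDH, POLR2A; bidirectional fit vs DMSO.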

[7] = read-out: Keratin 19 (KRT19), KRT19 (gene 3880); experiment: LTEA_HepaRG_KRT19: Life Technologies and Expression Analysis (LTEA) Assay for Keratin 19 (KRT19) using HepaRG (AID 2283512)
[8] = read-out: JUN Transcription Factor, JUN (gene 3725); experiment: LTEA_HepaRG_JUN: Life Technologies and Expression Analysis (LTEA) Assay for JUN Transcription Factor using HepaRG (AID 2283513)
Procedure, shortened: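 Human HepaRG liver cells receive test chemicals in 0.5% DMSO for 48 h across an eight-point range topping at 100 uM. Expression changes in JUN are scored in both directions against the DMSO vehicle.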

[9] = read-out: Lipase C (LIPC), LIPC (gene 3990); experiment: LTEA_HepaRG_LIPC: Life Technologies and Expression Analysis (LTEA) Assay for Lipase C (LIPC) using HepaRG (AID 2283514)
Procedure, shortened: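 HepaRG cells, 48 h after plating, treated in duplicate for 48 h in serum-free induction medium over 8 half-log concentrations from 100 uM, 0.5% DMSO. LIPC mRNA by TaqMan qRT-PCR normalized to ACTB/GAPDH/POLR2A; bidirectional fit versus DMSO.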

[10] = read-out: Lipoprotein lipase (LPL), LPL (gene 4023); experiment: LTEA_HepaRG_LPL: Life Technologies and Expression Analysis (LTEA) Assay for Lipoprotein lipase (LPL) using HepaRG (AID 2283515)
Procedure, shortened: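 Differentiated HepaRG cells, plated 48 h, then exposed 48 h in serum-free induction medium to 8 concentrations (top 100 uM, half-log steps) in 0.5% DMSO, duplicate. LPL mRNA measured by qRT-PCR, normalized to ACTB, GAPDH and POLR2A.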

[11] = read-out: MicroRNA 122 (MIR122), gene 406906; experiment: LTEA_HepaRG_MIR122: Life Technologies and Expression Analysis (LTEA) Assay for MicroRNA 122 (MIR122) using HepaRG (AID 2283516); further: the transcript read is the microRNA miR-122
Procedure, shortened: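 HepaRG, 48 h exposure, 8-pt half-log from 100 uM, 0.5% DMSO; TaqMan qRT-PCR; bidirectional fit vs DMSO.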

MYC, MYC (gene 4609) = experiment: LTEA_HepaRG_MYC: Life Technologies and Expression Analysis (LTEA) Assay for MYC using HepaRG (AID 2283518)
Procedure, shortened: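 Differentiated HepaRG cells exposed 48 h in serum-free induction medium to 8 concentrations (top 100 uM, half-log steps; 0.5% DMSO), duplicate. MYC mRNA measured by Fluidigm qRT-PCR, normalized to ACTB, GAPDH, POLR2A; bidirectional fit versus DMSO.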

[12] = read-out: matrix metalloproteinase-3 (MMP3), MMP3 (gene 4314); experiment: LTEA_HepaRG_MMP3: Life Technologies and Expression Analysis (LTEA) Assay for matrix metalloproteinase-3 (MMP3) using HepaRG (AID 2283519)
Procedure, shortened: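 HepaRG cells (~100,000/well) in serum-free induction medium were dosed in duplicate for 48 h with an 8-point half-log series from 100 uM, 0.5% DMSO. MMP3 mRNA was quantified by Fluidigm TaqMan qRT-PCR, normalized to three housekeeping genes.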

[13] = read-out: Paternally Expressed 10 (PEG10), PEG10 (gene 23089); experiment: LTEA_HepaRG_PEG10: Life Technologies and Expression Analysis (LTEA) Assay for Paternally Expressed 10 (PEG10) using HepaRG (AID 2283520);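 on AC50: PEG10 transcript by qRT-PCR normalised to ACTB GAPDH and POLR2A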
Procedure, shortened: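 Chemicals tested on HepaRG cells for 48 h, highest concentration 100 uM. PEG10 expression assessed by qRT-PCR relative to DMSO control.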

[14] = read-out: Insulin Like Growth Factor 1 (IGF1), IGF1 (gene 3479); experiment: LTEA_HepaRG_IGF1: Life Technologies and Expression Analysis (LTEA) Assay for Insulin Like Growth Factor 1 (IGF1) using HepaRG (AID 2283506)
Procedure, shortened: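 Using human HepaRG liver cells, IGF1 transcript induction or suppression is measured 48 h after dosing across eight concentrations capped at 100 uM. Values derive from bidirectional concentration-response fitting with DMSO as baseline.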

[15] = read-out: Insulin-like growth factor-binding protein 1 (IGFBP1), IGFBP1 (gene 3484); experiment: LTEA_HepaRG_IGFBP1: Life Technologies and Expression Analysis (LTEA) Assay for Insulin-like growth factor-binding protein 1 (IGFBP1) using HepaRG (AID 2283508)
Procedure, shortened: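 HepaRG cells, plated 48 h then switched to serum-free induction medium, exposed in duplicate for 48 h to 8-point half-log series from 100 uM in 0.5% DMSO. mRNA measured by qRT-PCR, normalized to ACTB/GAPDH/POLR2A; bidirectional fit versus DMSO.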

[16] = read-out: Interleukin 6 (IL6), IL6 (gene 3569); experiment: LTEA_HepaRG_IL6: Life Technologies and Expression Analysis (LTEA) Assay for Interleukin 6 (IL6) using HepaRG (AID 2283509)
Procedure, shortened: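 HepaRG cells exposed in duplicate for 48 h to eight half-log concentrations, top 100 uM, in 0.5% DMSO serum-free induction medium. mRNA measured by qRT-PCR, normalized to ACTB, GAPDH and POLR2A. Bidirectional fit versus DMSO.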

[17] = read-out: Interleukin 6 Receptor (IL6R), IL6R (gene 3570); experiment: LTEA_HepaRG_IL6R: Life Technologies and Expression Analysis (LTEA) Assay for Interleukin 6 Receptor (IL6R) using HepaRG (AID 2283510)
Procedure, shortened: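 Concentration-response in human liver HepaRG cells: eight concentrations from 100 uM downward by half-logs, 48 h exposure, 0.5% DMSO vehicle. IL6R mRNA change measured by qRT-PCR and fitted in both directions relative to vehicle.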

[18] = read-out: matrix metalloproteinase-10 (MMP10), MMP10 (gene 4319); experiment: LTEA_HepaRG_MMP10: Life Technologies and Expression Analysis (LTEA) Assay for matrix metalloproteinase-10 (MMP10) using HepaRG (AID 2283517)
Procedure, shortened: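 Differentiated HepaRG cells in serum-free induction medium exposed 48 h in duplicate to 8-point half-log series up to 100 uM in 0.5% DMSO. mRNA quantified by qRT-PCR, normalised to ACTB, GAPDH, POLR2A; bidirectional fit versus DMSO.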

Measured: AC50

Cc1cc([N+](=O)[O-])cc([N+](=O)[O-])c1O
active: [1] 4.38 µM | [2] 12.1 µM | [3] 10.5 µM | [4] 10.2 µM | HGF (gene 3082) 13 µM | [5] 30.4 µM | [7] 23.3 µM | [8] 6.97 µM | [9] 9.43 µM | [10] 82.4 µM | [11] 14.9 µM | MYC, MYC (gene 4609) 38.5 µM | [13] 6.29 µM
inactive: [6] | [12]

CN(C(=O)Cc1cccc2occc12)[C@H]1CC[C@@]2(CCCO2)C[C@@H]1N1CCCC1
inactive: all assays above

CC(C)OP(=S)(OC(C)C)SCCNS(=O)(=O)c1ccccc1
active: [2] 67.5 µM | [14] 24.2 µM | [5] 94 µM | [15] 80.9 µM | [16] 94 µM | [6] 50 µM | [8] 87.6 µM | [10] 86.1 µM | [11] 50 µM | [18] 77.5 µM | MYC, MYC (gene 4609) 81.7 µM | [12] 78.9 µM | [13] 66.5 µM
inactive: [1] | [3] | HGF (gene 3082) | [17] | [7] | [9]

O=C1C2CC=CCC2C(=O)N1SC(Cl)(Cl)C(Cl)Cl (stereo not drawn)
active: [14] 29.9 µM | [10] 50 µM
not listed: [7]
inactive: all other assays above
